Here are results for 82 compounds from PubChem BioAssay AID1321 (The Scripps Research Institute Molecular Screening Center, 2008).

Chains of the proteins cited; added tags and fusions are not shown.
UniProt P30291, whole entry K328M: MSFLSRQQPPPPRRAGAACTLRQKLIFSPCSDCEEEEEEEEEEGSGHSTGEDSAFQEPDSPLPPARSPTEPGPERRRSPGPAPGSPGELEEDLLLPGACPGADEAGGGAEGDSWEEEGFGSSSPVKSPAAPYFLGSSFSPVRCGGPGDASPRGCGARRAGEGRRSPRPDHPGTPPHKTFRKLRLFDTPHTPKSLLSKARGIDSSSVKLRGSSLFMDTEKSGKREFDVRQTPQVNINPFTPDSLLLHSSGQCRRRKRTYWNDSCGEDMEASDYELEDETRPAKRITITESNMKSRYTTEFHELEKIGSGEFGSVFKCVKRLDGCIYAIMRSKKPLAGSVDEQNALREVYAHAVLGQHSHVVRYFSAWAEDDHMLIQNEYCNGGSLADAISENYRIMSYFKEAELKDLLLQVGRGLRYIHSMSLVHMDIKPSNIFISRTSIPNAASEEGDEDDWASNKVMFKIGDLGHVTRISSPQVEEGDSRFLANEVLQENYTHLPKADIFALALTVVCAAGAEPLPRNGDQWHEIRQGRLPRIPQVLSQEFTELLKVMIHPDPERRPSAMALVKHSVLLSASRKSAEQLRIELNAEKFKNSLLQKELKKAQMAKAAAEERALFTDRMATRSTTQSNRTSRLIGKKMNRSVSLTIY

Only a part is listed here, and it is no random draw. Calls of active or inactive are those of the source.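 The calls were made as follows: active = activation above the mean of all tested compounds plus 3 SD, set per screening run (cut at about 8.8% in these data); inactive = the rest.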

In the assay the target is Wee1-like protein kinase (Homo sapiens) (UniProt P30291). The assay can be described thus: compounds stabilizing Wee1-luciferase fusion – cell-based, HeLa, Wee1K328M-luciferase, luminescence, primary screen (AID 1321).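 Also: cells exposed to compound for 20 h before luminescence read; 0% = DMSO alone and 100% = MG132 at 30 µM.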 Particulars: HeLa Luc-Wee1K328M stability, at 5 µM, stronger effect = higher value, 100% = proteasome inhibitor MG132 effect.
As for `O=[N+]([O-])c1cc([N+](=O)[O-])c(-n2nnc3ccccc32)c([N+](=O)[O-])c1`, the reporter increase is inactive: -4%. Regarding `Cc1nc2ccc3ccccc3c2s1.O=[N+]([O-])c1cc([N+](=O)[O-])c(O)c([N+](=O)[O-])c1`, the reporter increase was inactive: -2.34%. Consider `CCOC(=O)C(CC)C1=NC(C)(C)Cc2ccccc21.O=[N+]([O-])c1cc([N+](=O)[O-])c(O)c([N+](=O)[O-])c1` (configuration not stated), for which the reporter increase is inactive: -0.02%. As for `O=[N+]([O-])c1cc([N+](=O)[O-])c(Nc2nnnn2CCO)c([N+](=O)[O-])c1`, the reporter increase was inactive: 0.19%. The same measure for `CCCOc1ccc(NP(C)(=O)Oc2ccc(Cl)cc2)cc1` (configuration not stated): inactive: -1.56%; for `CP(=O)(Nc1ccc(SC(F)(F)F)cc1)Oc1ccccc1` (configuration not stated): inactive: -2.8%; for `COc1ccccc1OP(C)(=O)Nc1c(C)cccc1C` (configuration not stated): inactive: 2.69%. Turning to `CN1CCCCC1COC(=O)C1(O)c2ccccc2CCc2ccccc21` (configuration not stated), the reporter increase is inactive: 1.11%. The same measure for `O=C(O)c1cccc(Nc2c([N+](=O)[O-])cc([N+](=O)[O-])cc2[N+](=O)[O-])c1`: inactive: -1.59%; for `CC1=NCCc2c1[nH]c1ccccc21.O=[N+]([O-])c1cc([N+](=O)[O-])c(O)c([N+](=O)[O-])c1`: inactive: -1.91%. With `CCOC(=O)c1ccc(NP(C)(=O)Oc2cc(C)cc(C)c2)cc1` (configuration not stated) the figure was inactive: -1.41%.

As to `Cc1cc(C)cc(OP(C)(=O)Nc2ccc(C)cc2C)c1` (configuration not stated), the reporter increase was inactive: -1.67%. With `COc1ccccc1OP(C)(=O)Nc1cccc(Br)c1` (configuration not stated), the reporter increase is inactive: 0.15%.

On to `Cc1ccc(C)c(NP(C)(=O)Oc2ccccc2)c1` (configuration not stated), for which the reporter increase is inactive: -1.88%. Regarding `Cc1cc(C)cc(OP(C)(=O)Nc2ccccn2)c1` (configuration not stated), the reporter increase was inactive: -0.93%.

Consider `CP(=O)(Nc1cccc(Br)c1)Oc1ccccc1` (configuration not stated), for which the reporter increase is inactive: 1.64%. The same measure for `CCN(CC)CCCOC(=O)C(O)(c1ccccc1)c1ccccc1`: inactive: -0.56%; for `O=[N+]([O-])c1ccc2c(c1)C=Nc1ccccc1O2`: inactive: -1.08%; for `Cc1cccc(C)c1OP(C)(N)=O` (configuration not stated): inactive: 0.18%. Turning to `CC(C)(C)c1ccc(OP(C)(=O)Nc2ccc(SC(F)(F)F)cc2)cc1` (configuration not stated), the reporter increase was inactive: 4.46%. With `Cc1cc(C)cc(OP(C)(N)=O)c1` (configuration not stated) the figure was inactive: -0.19%; with `COc1ccc(OP(C)(=O)Nc2cccc(F)c2)cc1` (configuration not stated), inactive: 0.36%. The same measure for `COc1ccccc1OP(C)(=O)Nc1cc(Cl)ccc1C` (configuration not stated): inactive: -2.51%; for `Cc1ccc(NP(C)(=O)Oc2ccccc2)c(C)c1` (configuration not stated): inactive: 0.27%. With `COc1ccccc1OP(C)(=O)Nc1ccc(C)cc1` (configuration not stated) the figure was inactive: -2.35%; with `CCOC(=O)c1ccc(NP(C)(=O)Oc2ccccc2)cc1` (configuration not stated), inactive: 3.59%; with `CP(=O)(Nc1ccccc1Br)Oc1ccccc1` (configuration not stated), inactive: 1.91%. Turning to `COc1ccccc1OP(C)(=O)Nc1ccccc1` (configuration not stated), the reporter increase was inactive: -3.1%. In the case of `CP(=S)(Nn1cnnc1)Oc1ccccc1` (configuration not stated), the reporter increase was inactive: -1.11%. The same measure for `Cc1cc(C)cc(OP(C)(=O)Nc2ccc(SC(F)(F)F)cc2)c1` (configuration not stated): inactive: -2.1%; for `CP(=O)(NC(=O)Nc1ccccc1)Oc1ccccc1` (configuration not stated): inactive: -2.3%.

In the case of `CCc1ccc(OP(C)(=O)N2CCN(c3ccc([N+](=O)[O-])cc3)CC2)cc1` (configuration not stated), the reporter increase was inactive: 1.75%.

As for `CP(=O)(Oc1ccccc1)OC(c1ccccc1)C(F)(F)F` (configuration not stated), the reporter increase is inactive: 2.2%. The same measure for `Cc1cccc(C)c1OP(C)(=O)Nc1ccc(SC(F)(F)F)cc1` (configuration not stated): inactive: -0.6%; for `CP(=O)(Nc1ccc(SC(F)(F)F)cc1)Oc1ccc(Cl)cc1` (configuration not stated): inactive: 4.93%; for `CP(=O)(Nc1ccccn1)Oc1ccc(Cl)cc1` (configuration not stated): inactive: -0.89%. For `CCOC(=O)c1ccc(NP(C)(=O)Oc2ccc(OC)cc2)cc1` (configuration not stated), the reporter increase was inactive: -3.92%. With `CCOP(C)(=S)SCC(=O)NC(C)C(=O)O` (configuration not stated) the figure was inactive: -3.67%; with `O=C(OCCCN1CCCC1)C(O)(c1ccccc1)C1CCCCC1` (configuration not stated), inactive: 3.42%; with `COc1ccccc1OP(C)(=O)Nc1c(C)n(C)n(-c2ccccc2)c1=O` (configuration not stated), inactive: -0.29%.

Consider `CCc1ccc(OP(C)(=O)Nc2cccnc2)cc1` (configuration not stated), for which the reporter increase was inactive: -1.72%. On to `CP(=O)(Oc1ccccc1)N1CCOC1=O` (configuration not stated), for which the reporter increase is inactive: -0.94%.

For the compound `COc1ccc(OP(C)(=O)Nc2ccc(Br)cc2)cc1` (configuration not stated), the reporter increase is inactive: 4.13%. The same measure for `CCN(CC)CC(O)COC(=O)C(O)(c1ccccc1)C1CCCCC1` (configuration not stated): inactive: 0.7%.

For the compound `CN(C)C(=O)c1c([N+](=O)[O-])cc([N+](=O)[O-])cc1[N+](=O)[O-]`, the reporter increase was inactive: -1.34%. Take `COc1ccccc1OP(C)(=O)Nc1ccccc1Br` (configuration not stated): the reporter increase was inactive: -3.42%. For the compound `CC(C)(C)c1ccc(OP(C)(=O)O)cc1`, the reporter increase was inactive: 0.86%. The same measure for `CP(=O)(Nc1ccc(Cl)cc1)Oc1ccc(F)cc1` (configuration not stated): inactive: -2.65%.

For `CCOC(=O)c1ccc(NP(C)(=O)Oc2ccc(Cl)cc2)cc1` (configuration not stated), the reporter increase was inactive: 0.42%. With `CP(=O)(OC12CC3CC(CC(C3)C1)C2)OC12CC3CC(CC(C3)C1)C2` the figure was inactive: 3.16%; with `COc1ccccc1OP(C)(=O)Nc1ccc(C)c(C)c1` (configuration not stated), inactive: 4.12%; with `COc1ccc(OP(C)(=O)Nc2ccccc2Br)cc1` (configuration not stated), inactive: -0.43%. `Cc1cc(C)cc(OP(C)(=O)Nc2cccc(C(F)(F)F)c2)c1` (configuration not stated): the reporter increase was inactive: 1.15%. With `CP(=O)(Nc1ccc(Cl)cc1Cl)Oc1ccccc1` (configuration not stated), the reporter increase was inactive: -1.74%. The same measure for `CP(=O)(OCCOc1ccccc1)OCCOc1ccccc1`: inactive: -1.15%. With `Cc1nc2ccc3ccccc3c2o1.O=[N+]([O-])c1cc([N+](=O)[O-])c(O)c([N+](=O)[O-])c1` the figure was inactive: 5.55%; with `COc1ccc(OP(C)(=O)Nc2ccccn2)cc1` (configuration not stated), inactive: -1.5%.

With `CN(C)CCOC(=O)C(O)(c1ccccc1)C1CCCC1` (configuration not stated), the reporter increase was inactive: -2.72%. The same measure for `COc1ccccc1OP(C)(=O)Nc1ccc(Br)cc1` (configuration not stated): inactive: -1.66%; for `COc1ccccc1OP(C)(=O)Nc1ccc(C)cc1C` (configuration not stated): inactive: 0.01%.

Turning to `CP(=O)(Nc1ccccn1)Oc1ccccc1` (configuration not stated), the reporter increase is inactive: -2.18%.

`CCc1ccc(OP(C)(=O)O)cc1`: the reporter increase is inactive: -0.6%. `Cc1c(NP(C)(=O)Oc2ccc(C(C)C)cc2)c(=O)n(-c2ccccc2)n1C` (configuration not stated): the reporter increase was inactive: 1.35%. In the case of `CP(=O)(Nc1ccccc1F)Oc1ccccc1` (configuration not stated), the reporter increase was inactive: 3.29%. For `CC(C)c1ccc(OP(C)(=O)Nc2ccc(SC(F)(F)F)cc2)cc1` (configuration not stated), the reporter increase is inactive: -1.91%. The same measure for `O=C(OC1CN2CCC1CC2)c1ccc([N+](=O)[O-])cc1` (configuration not stated): inactive: -2.27%; for `O=C(OCCN1CCN(CCOCc2ccccc2)CC1)C(O)(c1ccccc1)c1ccccc1`: inactive: -3.05%. With `CCOC(=O)c1ccc(NP(C)(=O)Oc2ccc(F)cc2)cc1` (configuration not stated) the figure was inactive: 1.18%. With `COc1ccc(OP(C)(=O)Nc2ccc(SC(F)(F)F)cc2)cc1` (configuration not stated) the figure was inactive: -1.72%.

On to `CP(=O)(Nc1ccccc1)Oc1ccc(F)cc1` (configuration not stated), for which the reporter increase is inactive: 4.17%. For the compound `CCCCCOc1ccc(NP(C)(=O)Oc2ccc(Cl)cc2Cl)cc1` (configuration not stated), the reporter increase is inactive: -2.94%. With `CCN(CC)CCCOC(=O)C(O)(c1ccccc1)C1CCCCC1` (configuration not stated) the figure was inactive: -1.05%; with `CN(C)CCOC(=O)C(O)(c1ccccc1)C1CCCCC1` (configuration not stated), inactive: -1.97%.

Regarding `COc1ccc(NP(C)(=O)Oc2ccccc2OC)cc1` (configuration not stated), the reporter increase is inactive: -0.04%. The same measure for `COc1ccc(OP(C)(=O)Nc2cccc(Br)c2)cc1` (configuration not stated): inactive: 0.82%.

Take `O=[N+]([O-])c1ccc(OP2(=O)COCCO2)cc1` (configuration not stated): the reporter increase was inactive: -2.48%. As for `O=[N+]([O-])c1cc([N+](=O)[O-])c(NCC2CCS(=O)(=O)C2)c([N+](=O)[O-])c1` (configuration not stated), the reporter increase was inactive: -1.03%. Consider `Cc1cc(-c2cccc3ccccc23)c(C)cn1.O=[N+]([O-])c1cc([N+](=O)[O-])c(O)c([N+](=O)[O-])c1`, for which the reporter increase was inactive: 3.22%. On to `CCOP(C)(=S)SCC(=O)NC(C)(CC)C(=O)O` (configuration not stated), for which the reporter increase was inactive: -2.57%. For the compound `CP(=O)(Nc1ccc(SC(F)(F)F)cc1)Oc1ccc(F)cc1` (configuration not stated), the reporter increase is inactive: -0.4%. As to `Cc1ccccc1NP(C)(=O)Nc1ccccc1C`, the reporter increase was inactive: 3.96%. `CP(=O)(Nc1ccc2c(c1)OCCO2)Oc1ccccc1` (configuration not stated): the reporter increase was inactive: 0.3%.
